From ChEMBL document CHEMBL4400531, “Structure-Based Design of N-(5-Phenylthiazol-2-yl)acrylamides as Novel and Potent Glutathione S-Transferase Omega 1 Inhibitors” (J Med Chem, 2019)

How the values were obtained:
[1] = test system: HCT-116; assay: cells; settings: Homo sapiens, HCT-116, 72 h
[2] = test system: HT-29; assay: cells; settings: Homo sapiens, HT-29, 72 h
[3] = Metabolic stability in mouse liver microsomes at 1 uM in presence of NADPH incubated for 0 mins by LC-MS/MS analysis; type: ADME, Microsome; settings: read-out: Stability
[4] = Metabolic stability in human liver microsomes at 1 uM in presence of NADPH incubated for 15 mins by LC-MS/MS analysis; type: ADME, Microsome; settings: read-out: Stability
[5] = Metabolic stability in mouse liver microsomes at 1 uM in presence of NADPH incubated for 5 mins by LC-MS/MS analysis; type: ADME, Microsome; settings: read-out: Stability
[6] = Metabolic stability in mouse liver microsomes at 1 uM in presence of NADPH incubated for 15 mins by LC-MS/MS analysis; type: ADME, Microsome; settings: read-out: Stability
[7] = Metabolic stability in human liver microsomes at 1 uM in presence of NADPH incubated for 5 mins by LC-MS/MS analysis; type: ADME, Microsome; settings: read-out: Stability
[8] = Metabolic stability in human liver microsomes at 1 uM in presence of NADPH incubated for 0 mins by LC-MS/MS analysis; type: ADME, Microsome; settings: read-out: Stability
[9] = Metabolic stability in human liver microsomes at 1 uM in presence of NADPH incubated for 60 mins by LC-MS/MS analysis; type: ADME, Microsome; settings: read-out: Stability
[10] = Metabolic stability in mouse liver microsomes at 1 uM in presence of NADPH incubated for 30 mins by LC-MS/MS analysis; type: ADME, Microsome; settings: read-out: Stability
[11] = Metabolic stability in human liver microsomes at 1 uM in presence of NADPH incubated for 10 mins by LC-MS/MS analysis; type: ADME, Microsome; settings: read-out: Stability
[12] = Metabolic stability in human liver microsomes at 1 uM in presence of NADPH incubated for 45 mins by LC-MS/MS analysis; type: ADME, Microsome; settings: read-out: Stability
[13] = Metabolic stability in human liver microsomes at 1 uM in presence of NADPH incubated for 30 mins by LC-MS/MS analysis; type: ADME, Microsome; settings: read-out: Stability
[14] = Metabolic stability in mouse liver microsomes at 1 uM in presence of NADPH incubated for 60 mins by LC-MS/MS analysis; type: ADME, Microsome; settings: read-out: Stability
[15] = Metabolic stability in mouse liver microsomes at 1 uM in presence of NADPH incubated for 10 mins by LC-MS/MS analysis; type: ADME, Microsome; settings: read-out: Stability

| SMILES | IC50 [1] [µM] | IC50 [2] [µM] | other results |
| --- | --- | --- | --- |
| C=CC(=O)Nc1nc(-c2ccc3ccccc3c2)cs1 | 11.8 to 17.4 | 12.5 to 13.4 | – |
| C=CC(=O)N(Cc1cc(C)no1)c1nc(-c2ccc(C(F)(F)F)cc2)cs1 | – | 22.3 to 25.9 | – |
| C=CC(=O)Nc1nc(-c2ccccc2)c(C)s1 | 20.1 to 21.7 | – | – |
| C=CC(=O)N(CC(=O)NCCN1CCOCC1)c1nc(-c2ccccc2)cs1 | – | 12.2 to 14.5 | – |
| C=CC(=O)Nc1nc(-c2cccc(Cl)c2)cs1 | 11.9 to 14.3 | – | – |
| C=CC(=O)Nc1nc(-c2ccccc2)c(C(=O)OCC)s1 | 19.6 to 24.7 | 18 to 25.3 | – |
| C=CC(=O)Nc1nc(-c2ccc(Cl)cc2)cs1 | 12.6 to 20.6 | 17.3 to 23.7 | remaining at 0 h, 1 µM [3]: 100%; remaining at […], 1 µM [4]: 39.1%; remaining at 5 min, 1 µM [5]: 33.9%; remaining at […], 1 µM [6]: 12.5%; remaining at 5 min, 1 µM [7]: 66.7%; remaining at 0 h, 1 µM [8]: 100%; remaining at 1 h, 1 µM [9]: 5.75%; remaining at 0.5 h, 1 µM [10]: 7.14%; remaining at 10 min, 1 µM [11]: 48.3%; remaining at 0.75 h, 1 µM [12]: 8.04%; remaining at 0.5 h, 1 µM [13]: 19.5%; remaining at 1 h, 1 µM [14]: 5.36%; remaining at 10 min, 1 µM [15]: 17.9% |
| C=CC(=O)Nc1nc(-c2ccccc2)cs1 | 18.6 to 29 | – | – |
| C=CC(=O)Nc1nc(-c2ccc3c(c2)OCO3)cs1 | – | 17.7 to 20.1 | – |
| C=CC(=O)Nc1nc(-c2ccc(C(F)(F)F)cc2)cs1 | 4 to 5.7 | 4 to 5.7 | – |
| C=CC(=O)Nc1ncc(-c2ccccc2)s1 | – | 24.3 to 29.3 | – |
| C=CC(=O)Nc1nc(-c2ccccc2Cl)cs1 | 12.3 to 20.1 | 10.2 to 19.5 | – |
| C=CC(=O)N(Cc1cc(C)no1)c1cc(-c2ccccc2O)cs1 | 19.3 to 20.7 | 24.4 to 29.5 | – |
| C=CC(=O)N(CC(=O)NC1COC1)c1nc(-c2ccccc2)cs1 | 20.8 to 23.2 | – | – |
| C=CC(=O)Nc1nc(-c2ccc(OC)cc2)cs1 | 8 to 12.9 | – | – |
| C=CC(=O)Nc1nc(-c2ccccc2O)cs1 | – | 16.2 to 24.9 | – |
| C=CC(=O)N(CC(=O)N1CCOCC1)c1nc(-c2ccccc2)cs1 | 14.6 to 19.8 | 13.3 to 14.8 | – |
| C=CS(=O)(=O)Nc1ccc(Cl)c(S(=O)(=O)N(C)C)c1 | 9.9 to 11 | 10.2 to 16.8 | – |
| C=CC(=O)Nc1nc(-c2ccc(C)cc2)cs1 | 15.3 to 18.6 | – | – |
